Laboratory results from ChEMBL document CHEMBL1154321, “Benzoxazole piperidines as selective and potent somatostatin receptor subtype 5 antagonists” (Bioorg Med Chem Lett, 2009).
Only a part of the results on these compounds is given; other tests are left out.

The chains behind the UniProt entries cited, without tags or fusion partners.
UniProt P31391, whole entry: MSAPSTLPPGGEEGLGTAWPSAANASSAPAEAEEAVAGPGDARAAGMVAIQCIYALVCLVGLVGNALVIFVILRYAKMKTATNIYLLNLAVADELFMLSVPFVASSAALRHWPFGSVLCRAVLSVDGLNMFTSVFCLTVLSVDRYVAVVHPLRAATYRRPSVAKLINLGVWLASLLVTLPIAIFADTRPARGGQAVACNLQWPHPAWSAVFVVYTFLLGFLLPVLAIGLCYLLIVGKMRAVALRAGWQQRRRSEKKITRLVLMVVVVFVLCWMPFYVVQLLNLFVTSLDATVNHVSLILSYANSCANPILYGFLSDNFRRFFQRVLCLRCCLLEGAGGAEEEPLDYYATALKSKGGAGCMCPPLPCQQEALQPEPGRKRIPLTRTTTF
UniProt P32745, whole entry: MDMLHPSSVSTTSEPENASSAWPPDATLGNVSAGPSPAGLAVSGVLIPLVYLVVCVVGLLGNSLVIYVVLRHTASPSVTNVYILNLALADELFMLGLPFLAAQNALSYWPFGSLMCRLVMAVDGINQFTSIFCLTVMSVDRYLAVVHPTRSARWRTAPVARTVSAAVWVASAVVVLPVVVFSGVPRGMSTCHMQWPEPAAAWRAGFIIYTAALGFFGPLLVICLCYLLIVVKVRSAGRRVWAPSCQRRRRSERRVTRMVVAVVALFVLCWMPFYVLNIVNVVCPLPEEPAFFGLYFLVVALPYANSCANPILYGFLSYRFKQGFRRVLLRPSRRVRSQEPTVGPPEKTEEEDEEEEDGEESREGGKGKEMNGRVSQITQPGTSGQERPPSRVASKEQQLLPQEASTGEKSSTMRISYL
UniProt P35346, whole entry: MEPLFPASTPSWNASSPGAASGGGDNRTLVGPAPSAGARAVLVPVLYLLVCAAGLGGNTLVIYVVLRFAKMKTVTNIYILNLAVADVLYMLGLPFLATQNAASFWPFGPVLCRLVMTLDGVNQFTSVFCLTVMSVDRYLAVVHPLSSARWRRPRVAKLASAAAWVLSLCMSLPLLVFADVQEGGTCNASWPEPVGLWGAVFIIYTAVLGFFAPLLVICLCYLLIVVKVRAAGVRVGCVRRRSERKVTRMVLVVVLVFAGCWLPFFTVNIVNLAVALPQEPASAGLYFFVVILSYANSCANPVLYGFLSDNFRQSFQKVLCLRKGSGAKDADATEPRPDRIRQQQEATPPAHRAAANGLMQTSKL
UniProt P30874, whole entry: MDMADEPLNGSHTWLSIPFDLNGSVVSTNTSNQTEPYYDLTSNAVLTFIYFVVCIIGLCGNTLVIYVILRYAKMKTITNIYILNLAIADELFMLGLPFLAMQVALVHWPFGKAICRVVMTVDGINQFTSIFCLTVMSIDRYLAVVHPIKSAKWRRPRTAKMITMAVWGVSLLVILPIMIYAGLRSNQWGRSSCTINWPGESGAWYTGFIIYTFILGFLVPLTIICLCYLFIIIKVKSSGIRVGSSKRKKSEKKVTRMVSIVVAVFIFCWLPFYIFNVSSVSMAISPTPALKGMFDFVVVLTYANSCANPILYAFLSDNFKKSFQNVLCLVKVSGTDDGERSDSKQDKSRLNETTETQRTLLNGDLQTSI

Assays:
[1] = target: Somatostatin receptor type 4 (Homo sapiens, UniProt P31391); test: Displacement of SST14 from human recombinant SST4 receptor
In short: (§1)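 Membranes prepared by sonication from cells expressing the SST receptor subtype, incubated with radiolabeled 11-Tyr SST-14 tracer and test compound at varying concentrations; non-labeled SST-14 defined non-specific binding. Incubation stopped by glass-fiber filtration, bound radioactivity counted; IC50 for half-maximal binding inhibition estimated and Ki derived.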

[2] = target: Somatostatin receptor type 3 (Homo sapiens, UniProt P32745); test: Displacement of SST14 from human recombinant SST3 receptor; in short: as §1
[3] = target: Somatostatin receptor type 5 (Homo sapiens, UniProt P35346); test: Displacement of SST14 from human recombinant SST5 receptor expressed in CHO cells by radioligand binding assay
[4] = target: Somatostatin receptor type 2 (Homo sapiens, UniProt P30874); test: Displacement of SST14 from human recombinant SST2 receptor; in short: as §1

## CCOc1cc(NC2CCN(Cc3nc4ccccc4s3)CC2)ccc1OC
[1]
  Ki: > 10 µM
[2]
  Ki: > 10 µM
[3]
  Ki: > 1 µM
[4]
  Ki: > 10 µM
